This is an account of results in the NIST ThermoML archive (doi:10.1016/j.fluid.2018.09.024).

± gives the expanded uncertainty stated by the source.

A short description of the series: activity coefficient (dimensionless); of the first substance listed, at infinite dilution; xn = mol fraction of the nth substance listed. Conditions: 101.33 kPa, Liquid, Chromatography, x1 = 0.

`CCCCOCCCC` [dibutyl ether] + CCCCCCCCCCCC[N+](C)(C)CCOc1ccccc1.N#C[N-]C#N: the activity coefficient runs as follows: (328.15 K) 4.66 ± 0.32; (338.15 K) 4.76 ± 0.32; (348.15 K) 4.85 ± 0.33; (358.15 K) 4.92 ± 0.34; (368.15 K) 4.99 ± 0.34; (378.15 K) 5.08 ± 0.35.

Turning to `CCCCOCCCC` [dibutyl ether] + CCCCCCCCCCCC[N+](C)(C)CCOc1ccccc1.O=S(=O)([N-]S(=O)(=O)C(F)(F)F)C(F)(F)F, the activity coefficient runs as follows: (318.15 K) 2.61 ± 0.18; (328.15 K) 2.68 ± 0.18; (338.15 K) 2.74 ± 0.19; (348.15 K) 2.81 ± 0.19; (358.15 K) 2.88 ± 0.2; (368.15 K) 2.94 ± 0.2.
